Source: ChEMBL document CHEMBL2385080, “Designing bifunctional NOP receptor-mu opioid receptor ligands from NOP receptor-selective scaffolds. Part I” (2013)

Amino acid sequences for entries named in this document (tags omitted).
UniProt P41146, whole entry: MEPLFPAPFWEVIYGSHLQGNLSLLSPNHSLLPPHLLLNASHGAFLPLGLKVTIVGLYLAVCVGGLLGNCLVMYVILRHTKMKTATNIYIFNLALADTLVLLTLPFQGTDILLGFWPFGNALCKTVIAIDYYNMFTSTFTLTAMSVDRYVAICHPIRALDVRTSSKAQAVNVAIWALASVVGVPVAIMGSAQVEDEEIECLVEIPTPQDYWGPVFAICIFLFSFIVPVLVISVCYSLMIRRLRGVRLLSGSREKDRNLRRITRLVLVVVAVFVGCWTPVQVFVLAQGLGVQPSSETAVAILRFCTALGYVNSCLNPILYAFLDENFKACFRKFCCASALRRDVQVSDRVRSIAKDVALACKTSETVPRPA
UniProt P35372, whole entry: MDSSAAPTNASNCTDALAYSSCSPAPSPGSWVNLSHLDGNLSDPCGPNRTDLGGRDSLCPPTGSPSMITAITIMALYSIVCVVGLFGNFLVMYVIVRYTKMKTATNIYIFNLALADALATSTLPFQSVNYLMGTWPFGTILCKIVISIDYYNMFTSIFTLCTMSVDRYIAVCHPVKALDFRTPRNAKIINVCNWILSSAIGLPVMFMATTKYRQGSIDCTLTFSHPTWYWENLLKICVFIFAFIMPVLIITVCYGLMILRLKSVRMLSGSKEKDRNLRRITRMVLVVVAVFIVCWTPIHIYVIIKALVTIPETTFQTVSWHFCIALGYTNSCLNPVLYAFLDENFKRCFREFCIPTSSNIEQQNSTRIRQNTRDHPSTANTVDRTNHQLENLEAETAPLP
UniProt P41145, whole entry: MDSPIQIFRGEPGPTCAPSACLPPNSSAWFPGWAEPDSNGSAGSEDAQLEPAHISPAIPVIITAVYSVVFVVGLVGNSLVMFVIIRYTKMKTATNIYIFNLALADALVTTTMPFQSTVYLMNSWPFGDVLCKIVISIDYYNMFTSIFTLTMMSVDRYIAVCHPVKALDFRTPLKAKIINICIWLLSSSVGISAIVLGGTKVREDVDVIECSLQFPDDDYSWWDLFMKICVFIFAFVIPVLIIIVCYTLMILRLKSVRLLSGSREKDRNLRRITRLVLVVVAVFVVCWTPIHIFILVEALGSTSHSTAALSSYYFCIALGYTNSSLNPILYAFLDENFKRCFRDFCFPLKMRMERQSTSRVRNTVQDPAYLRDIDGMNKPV

Key:
[1] = target: Nociceptin receptor (Homo sapiens) (UniProt P41146); assay: Agonist activity at human nociceptin receptor transfected in CHO cells assessed as stimulation of [35S]GTPgammaS binding by liquid scintillation counting analysis relative to control
[2] = target: Mu-type opioid receptor (Homo sapiens) (UniProt P35372); assay: Agonist activity at human mu opioid receptor transfected in CHO cells assessed as stimulation of [35S]GTPgammaS binding by liquid scintillation counting analysis relative to control
Homo sapiens [3] = organism: Homo sapiens; assay: Selectivity for human nociceptin receptor over human kappa opioid receptor
Homo sapiens [4] = organism: Homo sapiens; assay: Selectivity for human nociceptin receptor over human delta opioid receptor
Homo sapiens [5] = organism: Homo sapiens; assay: Selectivity for human nociceptin receptor over human mu opioid receptor
[6] = target: Kappa-type opioid receptor (Homo sapiens) (UniProt P41145); assay: Agonist activity at human kappa opioid receptor transfected in CHO cells assessed as stimulation of [35S]GTPgammaS binding by liquid scintillation counting analysis relative to control

Structure (SMILES)	Activity [1] [%]	Activity [2] [%]	Selectivity ratio (Homo sapiens [3])	Selectivity ratio (Homo sapiens [4])	Selectivity ratio (Homo sapiens [5])	Activity [6] [%]
CCC1C(=O)N(C2CCN(C3CCCCCCC3)CC2)c2ccccc21 (stereo unspecified)	62	63	–	–	–	–
O=C1Cc2ccccc2N1C1CCN(C2CC[C@H]3CCCc4cccc2c43)CC1 (stereo partly specified)	107	18	–	–	–	–
O=C1NCN(c2ccccc2)C12CCN([C@H]1CC[C@@H]3CCCc4cccc1c43)CC2	–	–	100	100	100	–
O=C1Cc2ccccc2N1C1CCN(C2CCCCCCC2)CC1	54	23.4	–	–	–	38
CCC1C(=O)N(C2CCN([C@H]3CC[C@@H](C(C)C)CC3)CC2)c2ccccc21 (stereo partly specified)	95	44	–	–	–	–
CC1C(=O)N(C2CCN([C@H]3CC[C@@H](C(C)C)CC3)CC2)c2ccccc21 (stereo partly specified)	100	84.3	–	–	–	–
CC(c1ccccc1)N1CCC(N2C(=O)Cc3ccccc32)CC1 (stereo unspecified)	76	–	–	–	–	37.5
CCC(C)(C)[C@H]1CC[C@@H](N2CCC(N3C(=O)Cc4ccccc43)CC2)CC1	18.5	39	–	–	–	–
CC(C)C1CCC(N2CCC(N3C(=O)CCc4ccccc43)CC2)CC1 (stereo unspecified)	75	50	–	–	–	–
O=C1Cc2ccccc2N1C1CCN(C2C3CCCC2CCC3)CC1 (stereo unspecified)	45	30	–	–	–	–
CC1C(=O)N(C2CCN(C3CCCCCCC3)CC2)c2ccccc21 (stereo unspecified)	40	53.2	–	–	–	–
O=C1CCc2ccccc2N1C1CCN(C2CCCCCCC2)CC1	32	–	–	–	–	–
O=C1Cc2ccccc2N1C1CCN(Cc2ccccc2)CC1	18	36	–	–	–	–
CC1CC(=O)N(C2CCN(C3CCCCCCC3)CC2)c2ccccc21 (stereo unspecified)	38	59	–	–	–	–
CC(C)C1CCC(N2CCC(N3C(=O)Cc4ccccc43)CC2)CC1 (stereo unspecified)	100	49	–	–	–	–
CCC[C@H]1CC[C@@H](N2CCC(N3C(=O)Cc4ccccc43)CC2)CC1	62	28	–	–	–	–
CC(C1CCCCC1)N1CCC(N2C(=O)Cc3ccccc32)CC1 (stereo unspecified)	60	80.5	–	–	–	48
